# Source: patent US10724034B2, “Genetic encoding of chemical post-translational modification for phage-displayed libraries” (THE GOVERNORS OF THE UNIVERSITY OF ALBERTA, priority 2014, dated 2020)
# Amino acid sequences for entries named in this document (tags omitted).
# UniProt P17931, whole entry: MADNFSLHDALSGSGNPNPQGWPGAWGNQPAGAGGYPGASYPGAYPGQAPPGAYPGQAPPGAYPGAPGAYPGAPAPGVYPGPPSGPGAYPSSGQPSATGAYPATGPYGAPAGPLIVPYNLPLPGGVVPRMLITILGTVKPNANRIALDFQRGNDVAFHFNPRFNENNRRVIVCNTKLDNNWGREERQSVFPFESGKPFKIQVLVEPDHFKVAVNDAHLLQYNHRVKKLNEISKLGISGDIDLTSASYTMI
# Biological target: human Galectin-3 (Homo sapiens, UniProt P17931)
# Assay: ELISA-like competition assay: inhibition of HRP-Lactose binding to surface-immobilized Galectin-3
# Excerpt: Using an ELISA-like competition assay (FIGS. 12, 13), the binding activity of these glycopeptides to carbohydrate recognition domain (CRD) of the human Galectin-3 and their ability to compete with binding of Lactose-conjugated horseradish peroxidase (HRP), were validated (FIG. 12). As references, we used known Gal3 ligands, such as lactose, Methyl-β-D-galactopiranoside (MeGal) and tetrasaccharide Lacto-N-Tetraose (LNT).
# FIG. 12 illustrates an evaluation of activity of hits identified from genetically-encoded libraries of glycopeptides against […]. The assay measures that inhibitory constant (denoted as Effective concentrations of half-maximal response or EC50) of compounds in the inhibition of the interaction between soluble HRP-Lactose and surface-immobilized Galectin-3.
# Xylose-linked to the tetrapetide Xyl-ALRV (SEQ ID NO:107) compete with HRP-Lac with IC50 similar to MeGal. […] The competitive activity is quantified as decrease in color development by HRP-lac conjugate bound to Galectin-3 coated at 10 μg/ml concentration on polystyrene 96-well plates. […] This activity was in the same order of the LNT, which was reported that binds to Galectin-3 with a Kd of 97 nanomolars.
structure (smiles),measurement,setting,value
C[C@H](NC(=O)[C@@H]1CCCN1C(=O)C=NO[C@@H]1O[C@H](CO)[C@H](O)[C@H](O)[C@H]1O)C(=O)N1CCC[C@H]1C(=O)N[C@H](C(N)=O)[C@@H](C)O,Times better than LNT at inhibiting HRP-Lac binding to immobilized Galectin-3,versus LNT,5 times
same,Times better than Lactose at inhibiting HRP-Lac binding to Galectin-3,versus Lactose,30 times
same,Times more potent than MeGal at inhibiting HRP-Lac binding to Galectin-3,versus MeGal,> 1500 times
